The values below come from patent publication US20160024487A1, “THROMBIN SENSITIVE COAGULATION FACTOR X MOLECULES” (NOVO NORDISK A/S, priority 2013, published 2016).

The data set is described as follows: Pharmacokinetic study of pdFX and 40 kDa HEP-[N]-pdFX in FVIII-KO mice (FX ELISA, NCA). The following applies: IV 1 mg/kg. It counts as in vivo.

Marks after values point to notes of the source that are not given here.

For “pdFX: human plasma derived Factor X purchased from Molecular Innovations”, the AUC is given as 443* hr*nmol/L, the Cl was 0.628 mL/min/kg, the peak concentration (Cmax) is 99 nM and the Vz came to 0.205 L/kg.
The substance “40 kDa HEP-[N]-pdFX: human pdFX glycoHEPylated on the N-glycans with 40 kDa heparosan” displayed an AUC of 2257 nmol·h/L, a Cl of 0.123 mL/min/kg, a Cmax of 148 nM and a Vz of 0.209 L/kg.
